Assay results as given in PubChem BioAssay AID720702 (The Scripps Research Institute Molecular Screening Center, 2013).
The list shows a part of the results, in another mix than the full data. The source made the active and inactive calls.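 The calls were made as follows: active = inhibition above the mean of all tested compounds plus 3 SD, set per campaign (cut at about 25% in these data); inactive = the rest.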

Chains of the proteins cited; added tags and fusions are not shown. Lines headed by an entry give the natural chain unless they say otherwise; changes in a name come on top.
UniProt O95551: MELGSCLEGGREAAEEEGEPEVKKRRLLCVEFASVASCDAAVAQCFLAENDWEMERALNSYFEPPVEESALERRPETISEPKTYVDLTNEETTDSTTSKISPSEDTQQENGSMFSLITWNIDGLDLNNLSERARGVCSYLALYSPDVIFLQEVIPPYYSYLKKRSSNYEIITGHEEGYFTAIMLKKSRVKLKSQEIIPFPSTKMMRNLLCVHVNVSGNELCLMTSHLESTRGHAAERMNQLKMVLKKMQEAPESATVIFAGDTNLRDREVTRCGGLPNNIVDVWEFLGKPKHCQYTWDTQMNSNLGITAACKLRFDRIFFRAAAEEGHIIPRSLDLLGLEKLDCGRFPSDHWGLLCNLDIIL

These compounds were tested against Tyrosyl-DNA phosphodiesterase 2 (Homo sapiens) (UniProt O95551) (assay: blockers of TDP2 phosphodiesterase activity – biochemical, epi absorbance, recombinant enzyme, primary screen (AID 720702;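 also: 0% = DMSO with enzyme and 100% = buffer with substrate but no TDP2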)). Conditions: recombinant TDP2, T5PNP hydrolysis, p-nitrophenol absorbance 415 nm; at 12.8 µM; stronger effect = higher value.
In short: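 Test system: Human TDP2 enzyme | Reagent: 5 mM T5PNP | Compound dosing: 12.8 µM single point, 1% DMSO | Incubation: Enzyme reaction with compound for 2 h at 37 °C | Technique: p-Nitrophenol epi absorbance | Read-out: % inhibition relative to enzyme-containing and enzyme-free wells | Benchmarks: High control without enzyme, low control DMSO plus TDP2 | Replicates: Singlicate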

| SMILES | inhibition |
| --- | --- |
| Cc1ccc(OP(=O)(Nc2ccc([N+](=O)[O-])cn2)Oc2ccc(C)cc2)cc1 | inactive: -1.68% |
| COC(=O)C1(C)COP(=O)(N2CCCCCC2)OC1 (stereo not drawn) | inactive: 8.74% |
| CC(C)c1ccc(OP(=O)(Nc2ccccn2)Oc2ccccc2F)cc1 (stereo not drawn) | inactive: -9.12% |
| ClCCSc1nnc(-c2cccnc2)o1 | inactive: 2.59% |
| CC(C)NC(=O)NP(=O)(Oc1ccccc1)Oc1ccccc1 | inactive: 0.36% |
| O=C(OC1CN2CCC1CC2)c1cccc2[nH]cnc12 (stereo not drawn) | inactive: -7.36% |
| CCN(CC)C(=S)SC(NC=O)C(Cl)(Cl)Cl (stereo not drawn) | inactive: 6.18% |
| CC1CCNP(=O)(N(CCCl)CCCl)O1 (stereo not drawn) | inactive: -16.6% |
| CCOC(=O)Nc1ccc([As](=O)(O)O)c(O)c1 | inactive: 13.2% |
| O=C(O)C(O)c1ccc(N(CCCl)CCCl)cc1 (stereo not drawn) | inactive: -1.62% |
| CCCCOc1ccc(C(=O)NCC2(N3CCCCC3)CCCCC2)cc1OC | inactive: 9.37% |
| Cc1cc(SC(NC(=O)c2ccccc2)C(Cl)(Cl)Cl)nc(C(C)C)n1 (stereo not drawn) | inactive: 12.6% |
| COP(=O)(OC)N1CC1c1ccccc1 (stereo not drawn) | inactive: 1.02% |
| CCOC(=O)Nc1cccc([As](=O)(O)O)c1 | inactive: -0.53% |
| O=[N+]([O-])c1ccc(Nc2ccc(Oc3ccc([N+](=O)[O-])cc3[N+](=O)[O-])cc2)c([N+](=O)[O-])c1 | inactive: 1.07% |
| O=P(Nc1ccccn1)(c1cccc2ccccc12)c1cccc2ccccc12 | inactive: 10.6% |
| Cc1cc(SC(NC=O)C(Cl)(Cl)Cl)ncn1 (stereo not drawn) | inactive: 5.24% |
| COP1(=S)c2c(C)nn(CCC#N)c2N=C(c2ccc(F)cc2)N1C (stereo not drawn) | inactive: -1.81% |
| COC(=O)C1(C)COP(=O)(N2CCCC2)OC1 (stereo not drawn) | inactive: -12.6% |
| O=C(COc1ccccc1)OC1CN2CCC1CC2 (stereo not drawn) | inactive: 5.39% |
| O=C(Nc1ccncc1[N+](=O)[O-])c1ccc([N+](=O)[O-])cc1[N+](=O)[O-] | inactive: -11.3% |
| O=C(O)C(=O)c1ccc(N(CCCl)CCCl)cc1 | inactive: 1.18% |
| CCOC(=O)c1ccc(NC(=O)C(C)(CCl)SC)cc1 (stereo not drawn) | inactive: -8.09% |
| O=C(OC1CN2CCC1CC2)c1cccc([N+](=O)[O-])c1 (stereo not drawn) | inactive: 7.48% |
| CCC(C)N(CC(C)C)C(=S)SC(NC(C)=O)C(Cl)(Cl)Cl (stereo not drawn) | inactive: -4.54% |

| SMILES | inhibition |
| --- | --- |
| CCOP(=O)(Nc1ccc(C)cn1)OCC | inactive: 2.89% |
| CN(CCCl)Cc1cc(Cl)c(NC2=NCCN2)c(Cl)c1 | inactive: 10.9% |
| O=P1(Nc2ccccn2)COc2ccccc2OC1 | inactive: 6.92% |
| CCC1=CC2Cc3nc4ccc(Cl)cc4c(N)c3C(C1)C2 (stereo not drawn) | inactive: -4.81% |
| CCOP(=O)(NC(=NC(C)c1ccccc1)NC(C)c1ccccc1)OCC (stereo not drawn) | inactive: 12.3% |
| O=P1(N(CCCl)CCCl)NCCC(C(F)(F)F)O1 (stereo not drawn) | inactive: -1.35% |
| Clc1n[nH]nc1-c1nn[nH][15n]1 | inactive: -8.08% |
| CC(C)(C)C(=O)NC(Sc1ncccn1)C(Cl)(Cl)Cl (stereo not drawn) | inactive: 0.2% |
| COc1ccccc1CNC(=O)COC(=O)C(O)(c1ccccc1)c1ccccc1 | inactive: -4.58% |
| CC1(CBr)Cn2c(nc3ccccc3c2=O)S1 (stereo not drawn) | inactive: 0.89% |
| CC(C)/C=N\N=C(\N)N[N+](=O)[O-] | inactive: 5.4% |
| CN(C(=O)Cc1ccc(Cl)c(Cl)c1)[C@@H]1CCCC[C@H]1N1CCCC1 | inactive: -1.89% |
| CN(C(=O)Cc1ccc(Cl)c(Cl)c1)C1CCCC[C@@H]1N1CCCC1 (stereo partly drawn) | inactive: -4.94% |
| Cc1nn(-c2ccccc2)c2c1P(=O)(N1CCOCC1)N(C)C(c1ccccc1)=N2 (stereo not drawn) | inactive: 5.07% |
| CC1CCC(C(C)C)C(OP(=O)(Nc2ccccn2)c2ccccc2)C1 (stereo not drawn) | inactive: -1.36% |
| Cc1ccc(C(=O)OC2CN3CCC2CC3)cc1 (stereo not drawn) | inactive: 0.33% |
| O=C(/C=C/c1ccccc1)OC1CN2CCC1CC2 (stereo not drawn) | inactive: -1.87% |
| CCCC1OP(=O)(Nc2ccccc2)OCC1CC (stereo not drawn) | inactive: 3.94% |
| CN(C)C1(CNC(=O)c2ccc(S(C)(=O)=O)cc2)CCCCC1 | inactive: -5.43% |
| O=P1(Nc2ncccn2)COc2ccccc2OC1 | inactive: -9.52% |
| Cc1ccc(S(=O)(=O)N(CCCN)CCCc2c(C)nc(N)[nH]c2=O)cc1 | inactive: -0.09% |
| O=[As](O)(c1cccs1)c1cccs1 | inactive: 0% |
| Cc1ccc(OCC(=O)OC2CN3CCC2CC3)cc1 (stereo not drawn) | inactive: 6.26% |
| O=P1(Nc2ccc(Br)cn2)COc2ccccc2OC1 | inactive: -0.32% |
| NS(=O)(=O)c1cccc(NC(=O)COC(=O)C(O)(c2ccccc2)c2ccccc2)c1 | inactive: -4.7% |

| SMILES | inhibition |
| --- | --- |
| Nc1cccc([As](=O)(O)c2ccccc2)c1 | inactive: 8.14% |
| CCOP1(=S)c2c(C)nn(CCC#N)c2N=C(c2ccccc2F)N1C (stereo not drawn) | inactive: -0.37% |
| O=P(Nc1nccs1)(Oc1ccccc1)Oc1ccccc1 | inactive: 9.3% |
| Nc1ccccc1[As](=O)(O)c1ccccc1 | inactive: 0.69% |
| O=C(O)COc1ccc([As](=O)(O)O)cc1[N+](=O)[O-] | inactive: -0.78% |
| NC(=O)Nc1ccc([As](=O)(O)O)cc1 | inactive: 10.2% |
| O=[N+]([O-])c1ccc2c(c1)nnn2O | inactive: 18.9% |
| CN(C)C(=O)c1cc([N+](=O)[O-])cc2c1-c1c(cc([N+](=O)[O-])cc1[N+](=O)[O-])C2=O | inactive: -8.12% |
| CN(C(=O)Cc1ccc(Cl)c(Cl)c1)[C@H]1CC[C@@]2(CCCO2)C[C@@H]1N1CCCC1 | inactive: -0.61% |
| N#CCCN(C(=O)COC(=O)C(O)(c1ccccc1)c1ccccc1)c1ccc(F)cc1 | inactive: 16.8% |
| CN(C(=O)Cc1ccccc1)[C@@H]1CC[C@]2(CCCO2)C[C@H]1N1CCCC1 | inactive: 4.32% |
| CCOP1(=S)c2c(C)nn(CCC#N)c2N=C(c2ccc(F)cc2)N1C (stereo not drawn) | inactive: -4.32% |
| O=[As](O)(O)c1cccnc1 | inactive: 8.69% |
| COc1cc(C(=O)NCC2(N3CCOCC3)CCCCC2)cc(Cl)c1OC(C)C | inactive: -6.24% |
| CS(=O)(=O)c1ccc(Cl)c(NC(=O)COC(=O)C(O)(c2ccccc2)c2ccccc2)c1 | inactive: -5.62% |
| O=C(OC1CN2CCC1CC2)c1ccc(Cl)cc1 (stereo not drawn) | inactive: -12.9% |
| Cc1cccc(OCC(=O)OC2CN3CCC2CC3)c1 (stereo not drawn) | inactive: -3.36% |
| O=[As](O)(c1cccc(O)c1)c1cccc(O)c1 | inactive: 4.91% |
| CCCOP(=S)(Nc1nc(N)cc(=O)[nH]1)OCCC | inactive: -15% |
| Nc1cccc2c([As](=O)(O)O)cccc12 | active: 67.5% |
| Cc1ccc(NCCc2c([N+](=O)[O-])cc([N+](=O)[O-])cc2[N+](=O)[O-])cc1 | inactive: 8.56% |
| COc1cc(C2NCCC3(OCCO3)C2(C)C)cc(OC)c1OC (stereo not drawn) | inactive: -4.25% |
| CCOP(=O)(Nc1cccc2ccccc12)OCC | inactive: 5.08% |
